According to US20200316038A1, “METHODS AND COMPOSITIONS FOR TREATING UREA CYCLE DISORDERS, IN PARTICULAR OTC DEFICIENCY” (CAMP4 THERAPEUTICS CORPORATION, priority 2017, published 2020):

What was measured:
ARG1 = test: RNA-seq, ARG1 expression in compound-treated primary human hepatocytes; type: cell-based; conditions: compounds that significantly increase ARG1 expression
ASL = test: RNA-seq, ASL expression in compound-treated primary human hepatocytes; type: cell-based; conditions: compounds that significantly increase ASL expression
ASS1 = test: RNA-seq, ASS1 expression in compound-treated primary human hepatocytes; type: cell-based
[1] = test system: multiple urea cycle-related genes; test: RNA-seq, compounds that modulate multiple urea cycle-related genes; type: cell-based; conditions: primary human hepatocytes
CPS1 = test: RNA-seq, CPS1 expression in compound-treated primary human hepatocytes; type: cell-based

Compound | ARG1 expression, Fold change (Log 2) vs untreated (ARG1) [Log 2] | ASL expression, Fold change (Log 2) vs untreated (ASL) [Log 2] | Fold change (Log 2) vs untreated (ASS1) [Log 2] | NAGS expression, Fold change (Log 2) vs untreated (NAGS) [Log 2] | number of urea cycle genes whose expression was significantly up-regulated [1] | Up-regulated Genes ([1]; urea cycle-related genes significantly increased by the compound) | Fold change (Log 2) vs untreated (CPS1) [Log 2]
CC[C@@H]1/C=C/C=C/C[C@H](C)[C@H](O)[C@](C)(O)C(=O)[C@H](C)[C@@H](O)[C@H](C)C(=O)[C@H](C)[C@@H](O)[C@H](C)/C=C/C(=O)O[C@H]2[C@@H](C)[C@@H](CC1)O[C@@]1(CC[C@@H](C)[C@@H](C[C@H](C)O)O1)[C@@H]2C [Oligomycin A] | 0.75 | 0.84 | – | – | – | – | –
BMP2: Bone morphogenetic protein 2, TGF-B superfamily; BMPR1A activator | 0.81 | – | 0.75 | 0.6 | four | ASS1, CPS1, NAGS, ARG1 | 1.31
